In the experiment the test system is K562. Nature of the experiment: Cytotoxicity against human K562 cells assessed as growth inhibition after 96 hrs by Giemsa staining-based light microscopy. The class given is functional, cell-based. The following applies: K562, 96 h.

The IC50 is the concentration at which inhibition is half-maximal. As for `COc1cc(C(=O)c2ccn(-c3cccc(NS(C)(=O)=O)c3)c2)cc(OC)c1OC`, the IC50 is 19 nM.

For the origin of these results see ChEMBL document CHEMBL3351435, “New pyrrole derivatives with potent tubulin polymerization inhibiting activity as anticancer agents including hedgehog-dependent cancer” (J Med Chem, 2014).
